Measurements as given in article PMC3988539 (Neuropsychopharmacology : official publication of the …, 2013).
Where a name gives a salt, the structure may show the parent alone.

Sequences of proteins named here, by UniProt entry; tags and fusion partners are left off.
UniProt P31652, whole entry: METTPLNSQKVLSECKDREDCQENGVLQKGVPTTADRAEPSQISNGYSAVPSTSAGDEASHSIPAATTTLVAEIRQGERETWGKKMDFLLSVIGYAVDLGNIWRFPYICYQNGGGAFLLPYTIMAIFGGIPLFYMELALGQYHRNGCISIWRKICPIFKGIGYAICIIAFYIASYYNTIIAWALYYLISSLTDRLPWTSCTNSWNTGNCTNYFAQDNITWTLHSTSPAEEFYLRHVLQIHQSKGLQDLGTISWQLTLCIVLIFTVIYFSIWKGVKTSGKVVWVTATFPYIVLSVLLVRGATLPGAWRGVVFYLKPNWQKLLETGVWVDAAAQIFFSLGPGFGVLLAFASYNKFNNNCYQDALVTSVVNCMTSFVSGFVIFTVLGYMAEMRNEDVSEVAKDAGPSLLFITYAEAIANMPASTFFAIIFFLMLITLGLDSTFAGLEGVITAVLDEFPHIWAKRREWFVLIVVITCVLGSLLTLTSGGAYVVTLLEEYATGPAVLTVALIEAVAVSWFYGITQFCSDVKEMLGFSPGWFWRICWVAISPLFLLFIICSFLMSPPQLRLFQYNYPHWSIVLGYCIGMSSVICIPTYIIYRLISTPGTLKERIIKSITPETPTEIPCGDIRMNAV

Biological target: SERT (Rattus norvegicus, UniProt P31652)
Experiment: In vitro [3H]5-HT release from rat brain synaptosomes
Settings: read-out: Emax of 5-HT release

Question: How did the Emax turn out when `CCN[C@@H](C)Cc1cccc(C(F)(F)F)c1` [d-fenfluramine, (+)-N-ethyl-1-[3-(trifluoromethyl)phenyl]propan-2-amine hydrochloride] was run?
Answer: Its Emax is 100%.
